Experiment [1] has as its target TSPO (translocator protein) (UniProt P30536). As to the kind of experiment: Off-target interaction determined by the PDSP. The experiment is classed as binding, human. The following applies: read-out: Off-target, receptor (h, unless noted) (Ki, μM): TSPO.
Another experiment concerns the target mA1AR (Mus musculus, UniProt Q60612). As to the kind of experiment: Guanine nucleotide ([35S]GTPγS) binding assay. The experiment is classed as biochemical. Here is the method:
cLogP was calculated using ChemDraw Professional, v. 16.0. Binding selectivity for mA1Ar is expressed in terms of fold, compared to mA3AR (Data from Table 1).

The chains behind the UniProt entries cited, without tags or fusion partners.
UniProt Q60612, whole entry: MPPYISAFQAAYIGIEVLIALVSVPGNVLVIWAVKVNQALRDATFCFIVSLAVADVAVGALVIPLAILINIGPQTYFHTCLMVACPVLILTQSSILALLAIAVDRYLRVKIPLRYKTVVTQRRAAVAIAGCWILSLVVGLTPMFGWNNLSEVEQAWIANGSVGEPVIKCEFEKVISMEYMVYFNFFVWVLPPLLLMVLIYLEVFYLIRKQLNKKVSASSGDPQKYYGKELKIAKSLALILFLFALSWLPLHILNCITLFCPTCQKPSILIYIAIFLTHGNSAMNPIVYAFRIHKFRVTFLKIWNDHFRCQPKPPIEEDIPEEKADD
UniProt Q60613, whole entry: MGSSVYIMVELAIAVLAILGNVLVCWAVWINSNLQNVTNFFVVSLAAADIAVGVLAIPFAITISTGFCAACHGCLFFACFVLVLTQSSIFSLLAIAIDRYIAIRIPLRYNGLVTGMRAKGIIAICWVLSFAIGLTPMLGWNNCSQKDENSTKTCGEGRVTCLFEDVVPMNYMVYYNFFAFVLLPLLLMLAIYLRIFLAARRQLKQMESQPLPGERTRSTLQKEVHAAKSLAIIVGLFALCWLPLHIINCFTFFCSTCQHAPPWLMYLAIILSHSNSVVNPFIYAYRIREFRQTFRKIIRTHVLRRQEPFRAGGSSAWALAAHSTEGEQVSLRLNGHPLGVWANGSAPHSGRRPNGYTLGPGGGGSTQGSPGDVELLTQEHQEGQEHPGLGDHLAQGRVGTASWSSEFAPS
UniProt P28647, whole entry: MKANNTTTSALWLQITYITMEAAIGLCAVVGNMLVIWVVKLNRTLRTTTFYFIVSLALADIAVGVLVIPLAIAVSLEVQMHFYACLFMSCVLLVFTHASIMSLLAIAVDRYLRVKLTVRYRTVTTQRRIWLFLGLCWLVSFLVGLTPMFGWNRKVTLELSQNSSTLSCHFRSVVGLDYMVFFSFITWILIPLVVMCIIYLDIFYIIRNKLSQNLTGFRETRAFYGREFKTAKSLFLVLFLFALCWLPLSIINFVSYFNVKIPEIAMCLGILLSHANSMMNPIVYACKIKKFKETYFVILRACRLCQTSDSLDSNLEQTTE

For a further experiment, the target named is mA2AAR (Mus musculus, UniProt Q60613). Kind of experiment: Adenosine receptor binding, mA2AAR.
A further experiment addresses rA3AR (Rattus norvegicus, UniProt P28647). Kind of experiment: Adenosine receptor binding, rA3AR. The following applies: (r), read-out: A3AR % inhibition or Ki.

The structures appear in SMILES notation.

As to `CCOC(=O)[C@@]12C[C@@H]1[C@@H](n1cnc3c(NC(C4CC4)C4CC4)nc(Cl)nc31)[C@H](O)[C@@H]2O` [Compound 32], the Ki in experiment [1] is 2.5 µM.

For orientation: Emax means the size of the effect at its maximum, as opposed to the concentration needed. In the case of `OC[C@H]1O[C@@H](n2cnc3c(NC(C4CCC4)C4CCC4)ncnc32)[C@H](O)C1O` (stereo in doubt) [Compound 9, (2R,3R,4R,5R)-2-(6-((Dicyclobutylmethyl)amino)-9H-purin-9-yl)-5-(hydroxymethyl)tetrahydrofuran-3,4-diol], the maximum response (Emax) at 10 µM at mA1AR is 101 ± 7%. For `O[C@@H]1[C@H](O)[C@@H](CCl)O[C@H]1n1cnc2c(NC3CC4CCC3C4)ncnc21` (some centres unmarked) [Compound 4, reference compound], the Ki on mA2AAR ((m), values without % sign (Ki), read-out: A2AAR % inhibition) is 3.99 µM.

Turning to `CNC(=O)[C@H]1O[C@@H](n2cnc3c(N)ncnc32)[C@H](O)[C@@H]1O` [Compound 15, reference compound], the Ki at rA3AR was determined as 0.063 µM. In general, inhibition refers to the relative decrease from the control value, in per cent. `O[C@@H]1[C@H](O)[C@@H]2C[C@@H]2[C@H]1n1cnc2c(NC(C3CC3)C3CC3)nc(Cl)nc21` [Compound 7, reference compound]: the inhibition at 10 µM at mA2AAR (read-out: A2AAR % inhibition (converted)) was 34%.
